Measurements taken from US9518026B2, “5-aminopyrazole-4-carboxamide inhibitors of CDPK1 from T. gondii and C. parvum” (UNIVERSITY OF WASHINGTON THROUGH ITS CENTER FOR …, priority 2013, dated 2016).

Protein sequences, listed by entry. Tags and fused reporters are not part of them. Lines headed by an entry give the natural chain unless they say otherwise; changes in a name come on top. Residues count along the entry.
UniProt P00519, 242-493: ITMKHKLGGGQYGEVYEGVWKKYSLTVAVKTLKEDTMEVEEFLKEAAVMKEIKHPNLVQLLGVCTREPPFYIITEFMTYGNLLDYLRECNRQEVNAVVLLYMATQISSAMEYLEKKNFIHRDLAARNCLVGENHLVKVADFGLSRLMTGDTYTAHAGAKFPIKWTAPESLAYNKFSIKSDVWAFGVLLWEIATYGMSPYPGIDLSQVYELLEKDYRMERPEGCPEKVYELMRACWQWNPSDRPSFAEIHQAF
UniProt A3FQ16, 1-538: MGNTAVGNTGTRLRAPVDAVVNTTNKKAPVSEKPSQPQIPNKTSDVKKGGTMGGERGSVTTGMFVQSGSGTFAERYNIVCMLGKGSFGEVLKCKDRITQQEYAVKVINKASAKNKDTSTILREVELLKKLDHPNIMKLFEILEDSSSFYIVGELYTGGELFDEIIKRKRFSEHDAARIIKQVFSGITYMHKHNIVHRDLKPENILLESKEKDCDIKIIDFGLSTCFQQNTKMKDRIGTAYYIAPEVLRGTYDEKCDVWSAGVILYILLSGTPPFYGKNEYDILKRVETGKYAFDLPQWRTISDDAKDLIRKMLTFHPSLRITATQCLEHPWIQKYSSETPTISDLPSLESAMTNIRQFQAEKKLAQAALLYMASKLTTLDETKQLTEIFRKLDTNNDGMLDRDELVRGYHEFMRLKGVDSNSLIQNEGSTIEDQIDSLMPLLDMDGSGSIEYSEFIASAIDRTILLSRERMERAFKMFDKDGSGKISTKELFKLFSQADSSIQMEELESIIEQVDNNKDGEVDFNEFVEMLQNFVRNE
UniProt Q9BJF5, 1-507: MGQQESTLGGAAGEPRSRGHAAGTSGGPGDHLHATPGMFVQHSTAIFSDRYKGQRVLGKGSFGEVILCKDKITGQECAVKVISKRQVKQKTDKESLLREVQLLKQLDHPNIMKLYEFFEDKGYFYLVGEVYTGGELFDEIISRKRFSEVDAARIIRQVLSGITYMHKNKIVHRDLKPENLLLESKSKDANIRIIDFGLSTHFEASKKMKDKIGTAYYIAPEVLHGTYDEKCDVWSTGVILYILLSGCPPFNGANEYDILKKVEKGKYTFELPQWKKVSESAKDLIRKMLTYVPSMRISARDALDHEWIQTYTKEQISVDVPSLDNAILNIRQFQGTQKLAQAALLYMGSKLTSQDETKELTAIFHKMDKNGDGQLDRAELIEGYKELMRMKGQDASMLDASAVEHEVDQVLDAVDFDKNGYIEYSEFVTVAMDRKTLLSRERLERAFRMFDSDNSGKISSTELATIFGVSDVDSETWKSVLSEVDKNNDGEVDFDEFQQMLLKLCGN
UniProt P28482, whole entry, looked up, species assumed: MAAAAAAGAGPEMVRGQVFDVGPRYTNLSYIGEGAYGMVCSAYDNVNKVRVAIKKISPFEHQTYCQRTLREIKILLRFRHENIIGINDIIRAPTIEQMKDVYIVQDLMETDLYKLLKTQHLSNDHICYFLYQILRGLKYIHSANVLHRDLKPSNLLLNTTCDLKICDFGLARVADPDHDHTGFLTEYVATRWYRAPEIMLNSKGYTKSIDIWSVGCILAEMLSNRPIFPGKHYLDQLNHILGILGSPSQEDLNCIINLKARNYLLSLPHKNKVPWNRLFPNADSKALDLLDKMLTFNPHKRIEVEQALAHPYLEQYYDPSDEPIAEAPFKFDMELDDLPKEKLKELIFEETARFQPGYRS
UniProt Q9UM73, 19-1620, species assumed: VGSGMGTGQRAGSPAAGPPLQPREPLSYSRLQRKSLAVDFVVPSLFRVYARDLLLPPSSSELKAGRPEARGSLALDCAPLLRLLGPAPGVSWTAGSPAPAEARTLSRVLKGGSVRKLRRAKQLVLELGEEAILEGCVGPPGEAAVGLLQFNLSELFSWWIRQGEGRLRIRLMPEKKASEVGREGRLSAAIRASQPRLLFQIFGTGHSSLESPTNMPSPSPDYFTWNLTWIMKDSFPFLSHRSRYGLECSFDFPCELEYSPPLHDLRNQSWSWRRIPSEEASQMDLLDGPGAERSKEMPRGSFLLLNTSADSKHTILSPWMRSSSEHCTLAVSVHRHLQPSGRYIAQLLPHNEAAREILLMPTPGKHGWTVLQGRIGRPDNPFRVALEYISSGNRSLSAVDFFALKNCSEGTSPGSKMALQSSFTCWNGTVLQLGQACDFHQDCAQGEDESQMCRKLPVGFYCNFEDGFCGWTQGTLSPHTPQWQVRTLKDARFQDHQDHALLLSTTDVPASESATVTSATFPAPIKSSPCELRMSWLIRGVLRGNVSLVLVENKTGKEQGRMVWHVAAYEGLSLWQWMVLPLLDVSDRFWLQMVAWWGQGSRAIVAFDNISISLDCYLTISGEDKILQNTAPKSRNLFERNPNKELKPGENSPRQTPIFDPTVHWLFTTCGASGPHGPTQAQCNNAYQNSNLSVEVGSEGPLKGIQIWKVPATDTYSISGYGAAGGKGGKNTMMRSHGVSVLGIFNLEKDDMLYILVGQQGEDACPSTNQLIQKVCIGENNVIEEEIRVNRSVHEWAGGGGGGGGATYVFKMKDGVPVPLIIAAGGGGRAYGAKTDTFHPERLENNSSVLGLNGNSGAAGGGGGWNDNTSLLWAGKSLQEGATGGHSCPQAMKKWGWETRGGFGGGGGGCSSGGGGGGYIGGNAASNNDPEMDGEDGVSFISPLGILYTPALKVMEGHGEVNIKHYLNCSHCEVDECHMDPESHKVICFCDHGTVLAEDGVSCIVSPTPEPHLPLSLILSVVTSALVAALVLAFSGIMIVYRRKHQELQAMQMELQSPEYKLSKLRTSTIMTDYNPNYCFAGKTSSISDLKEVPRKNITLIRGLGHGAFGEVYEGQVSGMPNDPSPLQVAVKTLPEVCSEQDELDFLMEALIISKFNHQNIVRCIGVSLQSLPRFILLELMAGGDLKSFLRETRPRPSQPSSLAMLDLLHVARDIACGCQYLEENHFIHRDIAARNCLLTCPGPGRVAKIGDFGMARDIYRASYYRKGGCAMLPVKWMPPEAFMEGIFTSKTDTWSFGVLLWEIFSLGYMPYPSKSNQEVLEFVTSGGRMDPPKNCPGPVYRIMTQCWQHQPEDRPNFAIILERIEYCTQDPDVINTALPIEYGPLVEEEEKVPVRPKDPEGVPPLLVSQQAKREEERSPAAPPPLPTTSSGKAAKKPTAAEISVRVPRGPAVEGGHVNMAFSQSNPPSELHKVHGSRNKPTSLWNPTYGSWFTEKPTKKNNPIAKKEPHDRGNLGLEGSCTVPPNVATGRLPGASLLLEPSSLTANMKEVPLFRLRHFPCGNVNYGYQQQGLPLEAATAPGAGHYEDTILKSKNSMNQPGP
UniProt Q12809: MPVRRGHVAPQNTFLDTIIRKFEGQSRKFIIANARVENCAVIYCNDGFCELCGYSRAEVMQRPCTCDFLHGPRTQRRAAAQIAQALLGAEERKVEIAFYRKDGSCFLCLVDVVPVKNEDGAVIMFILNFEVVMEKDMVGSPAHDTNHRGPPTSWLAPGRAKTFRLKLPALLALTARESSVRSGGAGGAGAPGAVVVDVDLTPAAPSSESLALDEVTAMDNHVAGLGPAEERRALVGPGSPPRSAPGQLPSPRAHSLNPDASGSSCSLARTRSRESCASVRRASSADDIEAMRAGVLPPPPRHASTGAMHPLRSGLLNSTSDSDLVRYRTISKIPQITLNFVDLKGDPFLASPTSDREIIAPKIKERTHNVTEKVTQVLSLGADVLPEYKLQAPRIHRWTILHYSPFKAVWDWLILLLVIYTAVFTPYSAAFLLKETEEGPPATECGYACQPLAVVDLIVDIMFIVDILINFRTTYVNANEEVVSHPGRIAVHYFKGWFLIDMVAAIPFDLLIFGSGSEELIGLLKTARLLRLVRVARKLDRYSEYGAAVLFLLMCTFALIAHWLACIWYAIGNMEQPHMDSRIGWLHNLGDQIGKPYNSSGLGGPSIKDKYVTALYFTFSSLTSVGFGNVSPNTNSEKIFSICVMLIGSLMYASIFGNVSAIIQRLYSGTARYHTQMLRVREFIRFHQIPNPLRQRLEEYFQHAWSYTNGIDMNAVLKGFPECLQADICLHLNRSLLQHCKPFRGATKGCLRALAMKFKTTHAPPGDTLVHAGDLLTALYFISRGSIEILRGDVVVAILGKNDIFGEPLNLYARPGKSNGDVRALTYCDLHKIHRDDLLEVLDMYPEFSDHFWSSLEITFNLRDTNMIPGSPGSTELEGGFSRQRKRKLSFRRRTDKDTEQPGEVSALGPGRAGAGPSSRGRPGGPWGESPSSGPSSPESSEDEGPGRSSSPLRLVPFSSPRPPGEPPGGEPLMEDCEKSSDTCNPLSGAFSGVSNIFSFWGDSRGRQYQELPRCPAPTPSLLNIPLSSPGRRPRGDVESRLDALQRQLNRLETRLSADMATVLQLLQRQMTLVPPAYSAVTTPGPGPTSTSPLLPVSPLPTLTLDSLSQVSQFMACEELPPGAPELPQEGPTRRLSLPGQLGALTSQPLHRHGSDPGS
UniProt P12931: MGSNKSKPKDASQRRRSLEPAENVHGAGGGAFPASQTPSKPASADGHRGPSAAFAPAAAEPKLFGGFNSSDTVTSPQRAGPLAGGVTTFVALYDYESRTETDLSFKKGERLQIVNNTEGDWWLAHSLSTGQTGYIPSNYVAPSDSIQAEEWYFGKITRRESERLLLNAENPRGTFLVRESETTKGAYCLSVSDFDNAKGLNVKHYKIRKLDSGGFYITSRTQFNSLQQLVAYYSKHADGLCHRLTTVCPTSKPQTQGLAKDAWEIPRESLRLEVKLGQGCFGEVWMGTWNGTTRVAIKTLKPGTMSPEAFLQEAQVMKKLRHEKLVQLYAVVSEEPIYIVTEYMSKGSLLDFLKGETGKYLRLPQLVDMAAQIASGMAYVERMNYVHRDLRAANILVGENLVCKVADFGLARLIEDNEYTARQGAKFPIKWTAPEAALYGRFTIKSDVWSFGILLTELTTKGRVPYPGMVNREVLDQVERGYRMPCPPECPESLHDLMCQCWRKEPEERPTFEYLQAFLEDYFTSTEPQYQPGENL

Assays:
Abl = Abl (Homo sapiens (Human), UniProt P00519); assay: biochemical
CpCDPK1 = CpCDPK1 (Cryptosporidium parvum (strain Iowa II), UniProt A3FQ16); assay: biochemical
TgCDPK1 = TgCDPK1 (Toxoplasma gondii, UniProt Q9BJF5); assay: biochemical; format: biochemical
T. gondii = assay: Inhibition of T. gondii cell proliferation; conditions: Toxoplasma gondii, read-out: T. gondii EC50 (μM)
Erk2 = Erk2 (Homo sapiens (Human), UniProt P28482); assay: Kinase panel selectivity: Erk2; format: biochemical
ALK = ALK (Homo sapiens (Human), UniProt Q9UM73); assay: Kinase panel selectivity: ALK; format: biochemical
hERG = hERG (Homo sapiens (Human), UniProt Q12809); assay: biochemical; format: binding
Src = Src (Homo sapiens (Human), UniProt P12931); assay: biochemical; conditions: Src IC50 (μM)
in vivo = conditions: mouse, 10 mg/kg
[1] = Table 1, KinaseGlo, Syntide 2 peptide substrate, read-out: CpCDPK1 IC50
[2] = Table 1, KinaseGlo, Syntide 2 peptide substrate, read-out: TgCDPK1 IC50
[3] = Table 4, read-out: Enzyme Inhibition (IC50, μM) Tg CDPK1

For CCOc1ccc2cc(-c3nn(C(C)(C)C)c(N)c3C(N)=O)ccc2c1 [Compound 3, 5-amino-1-tert-butyl-3-(6-ethoxynaphthalen-2-yl)-1H-pyrazole-4-carboxamide], which IC50 (Abl) is on record?
The IC50 was 5100 nM.

And the IC50 (CpCDPK1; [1])?
The IC50 was 0.004 µM.

What about the IC50 (CpCDPK1; Table 4, read-out: Enzyme Inhibition (IC50, μM) Cp CDPK1) of the same molecule?
The IC50 was 0.004 µM.

Which IC50 (TgCDPK1; read-out: TgCDPK1 IC50) does the source give for CCOc1ccc2cc(-c3nn(C(C)(C)C)cc3C(N)=O)ccc2c1 [Compound 5, 1-tert-butyl-3-(6-ethoxynaphthalen-2-yl)-1H-pyrazole-4-carboxamide] here?
The IC50 was 0.13 µM.

And the IC50 (CpCDPK1; [1])?
The IC50 was 0.13 µM.

For CC(C)n1nc(-c2ccc3ccccc3c2)c(C(N)=O)c1N [Compound 13, 5-amino-1-isopropyl-3-(naphthalen-2-yl)-1H-pyrazole-4-carboxamide], which IC50 (TgCDPK1; [2]) is on record?
Its IC50 is 0.006 µM.

For CC(C)(C)Cn1nc(-c2ccc3ccccc3c2)c(C(N)=O)c1N [Compound 19, 5-amino-3-(naphthalen-2-yl)-1-neopentyl-1H-pyrazole-4-carboxamide], which EC50 (T. gondii) is on record?
Its EC50 is 0.32 µM.

For CC(C)(C)n1nc(-c2ccc3cc(O)ccc3c2)c(C(N)=O)c1N [Compound 24, 5-amino-1-(tert-butyl)-3-(6-hydroxynaphthalen-2-yl)-1H-pyrazole-4-carboxamide], which IC50 (TgCDPK1; [2]) is on record?
The IC50 was 0.007 µM.

With COc1ccc2cc(-c3nn(C(C)(C)C)c(N)c3C(N)=O)ccc2c1 [Compound 25, 5-amino-1-(tert-butyl)-3-(6-methoxynaphthalen-2-yl)-1H-pyrazole-4-carboxamide] as the molecule, how does the IC50 (Abl) read?
The IC50 was 4600 nM.

Which EC50 (T. gondii) does the source give for CC(C)(C)n1nc(-c2cnc3ccccc3c2)c(C(N)=O)c1N [Compound 38, 5-amino-1-(tert-butyl)-3-(quinolin-3-yl)-1H-pyrazole-4-carboxamide] here?
Its EC50 is 1.1 µM.

Which results are given for CCOc1ccc2cc(-c3nn(C(C)(C)C)c(N)c3C(N)=O)cnc2c1 [Compound 39, 5-amino-1-(tert-butyl)-3-(7-ethoxyquinolin-3-yl)-1H-pyrazole-4-carboxamide]?
Ki (Erk2): 6600 nM; Ki (ALK): 5790 nM; IC50 (hERG): > 30000 nM; IC50 (Src; Table 2): > 30 µM; IC50 (Src; Table 3): > 30 µM

Which IC50 (TgCDPK1; [2]) does the source give for COc1ccc2cc(-c3nn(C(C)(C)C)c(N)c3C(N)=O)cnc2c1 [Compound 1543, 5-amino-1-tert-butyl-3-(7-methoxyquinolin-3-yl)-1H-pyrazole-4-carboxamide] here?
Its IC50 is 0.005 µM.

And the IC50 (TgCDPK1; [3])?
Its IC50 is 0.005 µM.

For Cc1ccc2cc(-c3nn(C(C)(C)C)c(N)c3C(N)=O)cnc2c1 [Compound 1544, 5-amino-1-tert-butyl-3-(7-methylquinolin-3-yl)-1H-pyrazole-4-carboxamide], which IC50 (TgCDPK1; [2]) is on record?
Its IC50 is 0.016 µM.

For CC(C)(C)n1nc(-c2cnc3cc(F)ccc3c2)c(C(N)=O)c1N [Compound 1545, 5-amino-1-tert-butyl-3-(7-fluoroquinolin-3-yl)-1H-pyrazole-4-carboxamide], which IC50 (TgCDPK1; [2]) is on record?
The IC50 was 0.006 µM.

For CC(C)(C)n1nc(-c2cnc3cc(Cl)ccc3c2)c(C(N)=O)c1N [Compound 1554, 5-amino-1-tert-butyl-3-(7-chloroquinolin-3-yl)-1H-pyrazole-4-carboxamide], which IC50 (TgCDPK1; [2]) is on record?
The IC50 was 0.036 µM.

Which IC50 (TgCDPK1; [2]) does the source give for CC(C)(C)n1nc(-c2cnc3cc(C(F)(F)F)ccc3c2)c(C(N)=O)c1N [Compound 1555, 5-amino-1-tert-butyl-3-(7-(trifluoromethyl)quinolin-3-yl)-1H-pyrazole-4-carboxamide] here?
Its IC50 is 0.247 µM.

Which EC50 (T. gondii) does the source give for CC(C)Oc1ccc2cc(-c3nn(C(C)(C)C)c(N)c3C(N)=O)cnc2c1 [Compound 1569, 5-amino-1-(tert-butyl)-3-(7-isopropoxyquinolin-3-yl)-1H-pyrazole-4-carboxamide] here?
The EC50 was 1.21 µM.

For CCOc1ccc2cc(-c3nn(C4CCCCC4)c(N)c3C(N)=O)cnc2c1 [Compound 1571, 5-amino-1-cyclohexyl-3-(7-ethoxyquinolin-3-yl)-1H-pyrazole-4-carboxamide], which Tmax (in vivo) is on record?
The Tmax was 1.33 h.

What about the IC50 (TgCDPK1; [2]) of the same molecule?
Its IC50 is 0.008 µM.

And the IC50 (TgCDPK1; [3])?
The IC50 was 0.007 µM.

With CCOc1ccc2cc(-c3nn(C(C)C)c(N)c3C(N)=O)cnc2c1 [Compound 1572, 5-amino-3-(7-ethoxyquinolin-3-yl)-1-isopropyl-1H-pyrazole-4-carboxamide] as the molecule, how does the IC50 (TgCDPK1; [2]) read?
Its IC50 is 0.008 µM.

What about the IC50 (TgCDPK1; [3]) of the same molecule?
Its IC50 is 0.006 µM.

With CCOc1ccc2cc(-c3nn(CC4CCCCC4)c(N)c3C(N)=O)cnc2c1 [Compound 1574, 5-amino-1-(cyclohexylmethyl)-3-(7-ethoxyquinolin-3-yl)-1H-pyrazole-4-carboxamide] as the molecule, how does the IC50 (TgCDPK1; [2]) read?
The IC50 was 0.08 µM.

Which IC50 (TgCDPK1; [2]) does the source give for CCOc1ccc2cc(-c3nn(CC(F)(F)F)c(N)c3C(N)=O)cnc2c1 [Compound 1575, 5-amino-3-(7-ethoxyquinolin-3-yl)-1-(2,2,2-trifluoroethyl)-1H-pyrazole-4-carboxamide] here?
The IC50 was 0.013 µM.

Which results are given for CC(C)(C)n1nc(-c2cnc3cc(OCC4CC4)ccc3c2)c(C(N)=O)c1N [Compound 1585, 5-amino-1-(tert-butyl)-3-(7-(cyclopropylmethoxy)quinolin-3-yl)-1H-pyrazole-4-carboxamide]?
IC50 (TgCDPK1; [2]): 0.016 µM; EC50 (T. gondii): 1.47 µM

For CC(C)(C)n1nc(-c2cnc3cc(OC4CC4)ccc3c2)c(C(N)=O)c1N [Compound 1586, 5-amino-1-(tert-butyl)-3-(7-cyclopropoxyquinolin-3-yl)-1H-pyrazole-4-carboxamide], which IC50 (TgCDPK1; [2]) is on record?
The IC50 was 0.01 µM.

With CC(C)COc1ccc2cc(-c3nn(C(C)(C)C)c(N)c3C(N)=O)cnc2c1 [Compound 1588, 5-amino-1-(tert-butyl)-3-(7-isobutoxyquinolin-3-yl)-1H-pyrazole-4-carboxamide] as the molecule, how does the IC50 (TgCDPK1; [2]) read?
The IC50 was 0.086 µM.

For CCOc1ccc2cc(-c3nn(CC(C)(C)C)c(N)c3C(N)=O)cnc2c1 [Compound 1591, 5-amino-3-(7-ethoxyquinolin-3-yl)-1-neopentyl-1H-pyrazole-4-carboxamide], which IC50 (TgCDPK1; [2]) is on record?
The IC50 was 0.021 µM.

What about the IC50 (CpCDPK1; [1]) of the same molecule?
The IC50 was 0.007 µM.

Which IC50 (TgCDPK1; [2]) does the source give for CCc1ccc2cc(-c3nn(C(C)(C)C)c(N)c3C(N)=O)cnc2c1 [Compound 1592, 5-amino-1-(tert-butyl)-3-(7-ethylquinolin-3-yl)-1H-pyrazole-4-carboxamide] here?
The IC50 was 0.115 µM.

For CCOc1ccc2cc(-c3nn(CC(C)(C)CO)c(N)c3C(N)=O)cnc2c1 [Compound 1596, 5-amino-3-(7-ethoxyquinolin-3-yl)-1-(3-hydroxy-2,2-dimethylpropyl)-1H-pyrazole-4-carboxamide], which IC50 (TgCDPK1; [2]) is on record?
The IC50 was 0.011 µM.

What about the EC50 (T. gondii) of the same molecule?
Its EC50 is 1.19 µM.

What does the source list for CCOc1ccc2cc(-c3nn(C(C)(C)C)c(N)c3C(N)=O)ccc2n1 [Compound 1597, 5-amino-1-(tert-butyl)-3-(2-ethoxyquinolin-6-yl)-1H-pyrazole-4-carboxamide]?
Tmax (in vivo): 1.33 h; IC50 (TgCDPK1; [2]): 0.006 µM

Which EC50 (T. gondii) does the source give for CCOc1ccc2cc(-c3nn(CC4CC4)c(N)c3C(N)=O)cnc2c1 [Compound 1598, 5-amino-1-(cyclopropylmethyl)-3-(7-ethoxyquinolin-3-yl)-1H-pyrazole-4-carboxamide] here?
The EC50 was 1.21 µM.

For CCOc1ccc2cc(-c3nn(C4CCCCCC4)c(N)c3C(N)=O)cnc2c1 [Compound 1604, 5-amino-1-cycloheptyl-3-(7-ethoxyquinolin-3-yl)-1H-pyrazole-4-carboxamide], which IC50 (TgCDPK1; [2]) is on record?
Its IC50 is 0.006 µM.

Which IC50 (TgCDPK1; [2]) does the source give for CCOc1ccc2cc(-c3nn(C4CCCC4)c(N)c3C(N)=O)cnc2c1 [Compound 1605, 5-amino-1-cyclopentyl-3-(7-ethoxyquinolin-3-yl)-1H-pyrazole-4-carboxamide] here?
The IC50 was 0.011 µM.

With CCOc1ccc2cc(-c3nn(C(C)CCO)c(N)c3C(N)=O)cnc2c1 (stereo not shown) [Compound 1608, 5-amino-3-(7-ethoxyquinolin-3-yl)-1-(4-hydroxybutan-2-yl)-1H-pyrazole-4-carboxamide] as the molecule, how does the IC50 (TgCDPK1; [2]) read?
The IC50 was 0.017 µM.

Which IC50 (TgCDPK1; [2]) does the source give for CCOc1ccc2cc(-c3nn(CC(C)(C)CO)c(N)c3C(N)=O)ccc2n1 [Compound 1622, 5-amino-3-(2-ethoxyquinolin-6-yl)-1-(3-hydroxy-2,2-dimethylpropyl)-1H-pyrazole-4-carboxamide] here?
The IC50 was 0.007 µM.

For CCOc1ccc2cc(-c3nn(CC4CC4)c(N)c3C(N)=O)ccc2n1 [Compound 1635, 5-amino-1-(cyclopropylmethyl)-3-(2-ethoxyquinolin-6-yl)-1H-pyrazole-4-carboxamide], which EC50 (T. gondii) is on record?
The EC50 was 0.48 µM.

With CC(C)(CO)Cn1nc(-c2ccc3nc(OC4CCC4)ccc3c2)c(C(N)=O)c1N [Compound 1645, 5-amino-3-(2-cyclobutoxyquinolin-6-yl)-1-(3-hydroxy-2,2-dimethylpropyl)-1H-pyrazole-4-carboxamide] as the molecule, how does the IC50 (TgCDPK1; [2]) read?
Its IC50 is 0.01 µM.

For CCOc1ccc2cc(-c3nn(C4CCC4)c(N)c3C(N)=O)cnc2c1 [Compound 1652], which IC50 (TgCDPK1; [2]) is on record?
The IC50 was 0.012 µM.

What about the IC50 (CpCDPK1; [1]) of the same molecule?
Its IC50 is 0.003 µM.

Read-outs that look alike come from different tables or passages of the source.
